In experiment [1] the target is Histamine H1 receptor (Homo sapiens) (UniProt P35367). The experiment is described as follows: Antagonist activity at human H1R-RGS4 expressed in Sf9 cells by steady state GTPase activity assay. Format: functional. A digest of the protocol: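 Sf9 membranes (5–20 μg protein) co-expressing human H1R with RGS4. Reaction with 1.0 mM MgCl2, 100 μM ATP, 100 nM GTP, AppNHp, creatine phosphate/kinase, 0.2% BSA, 50 mM Tris-HCl pH 7.4. Histamine 100 nM with test ligand 10 nM–1 mM. [γ-32P/33P]GTP added, 20 min at 25 °C. Charcoal stop, released Pi counted. pKB from sigmoidal nonlinear fits.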

Sequences of proteins named here, by UniProt entry; tags and fusion partners are left off. A change or cut given only in a name is not applied to a line headed by its entry.
UniProt P35367, whole entry: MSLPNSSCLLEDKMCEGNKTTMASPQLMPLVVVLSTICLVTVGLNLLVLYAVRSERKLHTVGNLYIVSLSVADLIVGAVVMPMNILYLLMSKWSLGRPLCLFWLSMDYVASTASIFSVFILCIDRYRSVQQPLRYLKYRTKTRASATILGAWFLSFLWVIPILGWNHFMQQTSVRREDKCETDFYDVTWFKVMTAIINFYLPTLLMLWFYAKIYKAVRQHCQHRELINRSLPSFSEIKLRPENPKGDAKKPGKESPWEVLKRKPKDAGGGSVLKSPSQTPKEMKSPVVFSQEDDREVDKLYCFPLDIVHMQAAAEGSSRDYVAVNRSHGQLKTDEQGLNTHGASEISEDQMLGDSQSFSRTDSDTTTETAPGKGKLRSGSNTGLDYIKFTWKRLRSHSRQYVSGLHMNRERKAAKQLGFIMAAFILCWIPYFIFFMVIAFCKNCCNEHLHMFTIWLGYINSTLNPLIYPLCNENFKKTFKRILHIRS
UniProt P47747, whole entry: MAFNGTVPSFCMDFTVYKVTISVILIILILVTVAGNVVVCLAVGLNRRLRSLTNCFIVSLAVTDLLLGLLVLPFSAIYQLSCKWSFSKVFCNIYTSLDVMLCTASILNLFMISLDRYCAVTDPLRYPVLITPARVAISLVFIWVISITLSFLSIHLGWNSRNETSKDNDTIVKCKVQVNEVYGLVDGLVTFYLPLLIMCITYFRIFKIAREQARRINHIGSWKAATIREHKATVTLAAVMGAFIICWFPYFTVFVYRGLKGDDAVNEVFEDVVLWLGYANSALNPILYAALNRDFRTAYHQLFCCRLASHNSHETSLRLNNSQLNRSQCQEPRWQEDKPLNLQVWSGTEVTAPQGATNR
UniProt P25021, whole entry: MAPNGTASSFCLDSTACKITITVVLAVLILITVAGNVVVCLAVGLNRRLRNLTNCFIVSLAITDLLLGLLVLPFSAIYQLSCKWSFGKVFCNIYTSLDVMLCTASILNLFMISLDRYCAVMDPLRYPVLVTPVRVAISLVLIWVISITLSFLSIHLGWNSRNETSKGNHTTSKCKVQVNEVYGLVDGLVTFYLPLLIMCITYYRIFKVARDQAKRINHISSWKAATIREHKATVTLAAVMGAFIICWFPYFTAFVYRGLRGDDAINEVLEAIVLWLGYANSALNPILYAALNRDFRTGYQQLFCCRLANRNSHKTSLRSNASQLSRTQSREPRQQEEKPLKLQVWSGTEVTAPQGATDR
UniProt Q9Y5N1: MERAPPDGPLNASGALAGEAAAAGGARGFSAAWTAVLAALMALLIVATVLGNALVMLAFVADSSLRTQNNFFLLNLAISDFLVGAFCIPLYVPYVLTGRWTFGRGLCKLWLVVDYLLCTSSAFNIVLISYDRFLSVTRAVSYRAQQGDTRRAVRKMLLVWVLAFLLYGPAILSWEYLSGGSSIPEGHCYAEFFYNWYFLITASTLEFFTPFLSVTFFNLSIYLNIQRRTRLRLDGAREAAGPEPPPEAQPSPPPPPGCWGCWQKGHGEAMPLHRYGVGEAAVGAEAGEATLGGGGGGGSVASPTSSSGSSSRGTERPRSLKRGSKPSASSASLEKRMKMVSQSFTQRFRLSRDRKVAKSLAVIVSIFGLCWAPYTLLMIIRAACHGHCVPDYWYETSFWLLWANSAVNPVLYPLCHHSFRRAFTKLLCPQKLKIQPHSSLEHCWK

The target in experiment [2] is Histamine H2 receptor (Cavia porcellus) (UniProt P47747). The experiment is described as follows: Potency index, ratio of pEC50 for compound to pEC50 for histamine at guinea pig H2R-Gsalphas expressed in Sf9 cells at 0.1 nM to 10 uM by steady state GTPase activity assay. A digest of the protocol:
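Sf9 membranes expressing human or guinea pig H2R-Gsαs fusion protein, 1.0 mM MgCl2, ATP, 100 nM GTP, AppNHp, creatine phosphate/kinase, BSA, Tris pH 7.4. Agonists 0.1 nM–10 μM, [γ-32P/33P]GTP hydrolysis 20 min at 25 °C, Pi counted. Curves fit by sigmoidal nonlinear regression. Potency given relative to histamine (set to 1.0). Two to six independent experiments in duplicate.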

For experiment [3], the target named is T1, Histamine H2 receptor (Homo sapiens, UniProt P25021). As to conditions: Sf9, 0.1 nM.
Experiment [4] has as its target T1, Histamine H2 receptor. As to conditions: Sf9.
A further experiment concerns the target Histamine H3 receptor (Homo sapiens, UniProt Q9Y5N1). The following applies: Sf9.
For experiment [5], the target named is Histamine H2 receptor (Cavia porcellus, UniProt P47747). The experiment is described as follows: Agonist activity at guinea pig H2R-Gsalphas expressed in Sf9 cells at 0.1 nM to 10 uM by steady state GTPase activity assay. The class given is functional. The procedure, abridged:
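Steady-state GTPase assay with Sf9 membranes (5–20 µg protein) expressing hH2R- or gpH2R-Gsαs, in 50 mM Tris-HCl pH 7.4. Mix: 1.0 mM MgCl2, 100 µM EDTA, 100 nM GTP, 100 µM AppNHp, 5 mM creatine phosphate, creatine kinase, 0.2% BSA, ligand 0.1 nM–10 µM. After 2 min at 25 °C, [γ-32P]GTP or [γ-33P]GTP was added and reacted 20 min at 25 °C. Charcoal stop; released Pi counted. Two to six experiments, duplicate.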

The source made the active and inactive calls. No cut-off for these calls is given here.

For `Cc1nc(N)sc1CCCN/C(N)=N/C(=O)CCCCCCCCC(=O)/N=C(\N)NCCCc1c[nH]cn1`, in experiment [1], the negative-log Kb (pKb) (usually the Kb on a negative log10 scale, so that one unit is a factor of ten) came out at 6.27.
With `N/C(=N\C(=O)CCCCCCCCCCCCCCCCCCCCC(=O)/N=C(\N)NCCCc1c[nH]cn1)NCCCc1c[nH]cn1`, the Ratio in experiment [2] was found to be 34.7. In addition, the pKb in experiment [1] is under 6; at Histamine H2 receptor [4], 6.57. At Histamine H2 receptor [3], the pEC50 result is “inactive”.
Turning to `Cc1nc(N)sc1CCCN/C(N)=N/C(=O)CCCCCCCCC(=O)/N=C(\N)NCCCc1cnc(N)s1`, the values for the negative-log Kb (pKb) (in experiment [1]; on Histamine H3 receptor) were under 6 and under 5, respectively.
The like results for `Cc1nc(N)sc1CCCN/C(N)=N/C(=O)CCCCC(=O)/N=C(\N)NCCCc1sc(N)nc1C` were, in that order, under 6 and under 5.
For `N/C(=N\C(=O)CCCCCCCCC(=O)/N=C(\N)NCCCc1cnc(N)s1)NCCCc1cnc(N)s1`, the negative-log Kb (pKb) in experiment [1] is under 6; at Histamine H3 receptor, under 5.
With `N=C(NCCCc1cnc[nH]1)NC(=O)CCCCCCCCCCCCCCCCCCCCC(=O)NC(N)=NCCCc1cnc[nH]1`, the half-maximal effective concentration (EC50) (commonly the concentration giving half of the maximal effect) on Histamine H2 receptor [5] is 34.7 nM.
For `Cc1nc(N)sc1CCCN=C(N)NC(=O)CCCCCCCCC(=O)NC(N)=NCCCc1cnc(N)s1`, the concentration giving a half-maximal response (EC50) at Histamine H2 receptor [5] is 3.47 nM.
As to `Cc1nc(N)sc1CCCN/C(N)=N/C(=O)CCCCCCCCCCCCCCCCCCCCC(=O)/N=C(\N)NCCCc1sc(N)nc1C`, the pEC50 result on Histamine H2 receptor [3] was “inactive”. The molecule further showed a negative logarithm of the Kb (pKb) at Histamine H2 receptor [4] of 6.11.
With `Cc1nc(N)sc1CCCN/C(N)=N/C(=O)CCCCCCCCC(=O)/N=C(\N)NCCCc1sc(N)nc1C`, the negative-log Kb (pKb) is 6.01 in experiment [1] and under 5 on Histamine H3 receptor.
On to `N/C(=N\C(=O)CCCCCCCCC(=O)/N=C(\N)NCCCc1c[nH]cn1)NCCCc1c[nH]cn1`, for which the pKb in experiment [1] is 6.32.
The same measure, in the same setting: for `N/C(=N\C(=O)CCCCCCCCCCCCCCC(=O)/N=C(\N)NCCCc1c[nH]cn1)NCCCc1c[nH]cn1` the value was under 6.
As to `Cc1nc(N)sc1CCCN/C(N)=N/C(=O)CCCCCCCCCCCCCCC(=O)/N=C(\N)NCCCc1sc(N)nc1C`, the negative-log Kb (pKb) (in experiment [1]; on Histamine H3 receptor) was under 6 throughout.
In the case of `Cc1nc(N)sc1CCCN/C(N)=N/C(=O)CCCCCCC(=O)/N=C(\N)NCCCc1sc(N)nc1C`, the negative-log Kb (pKb) in experiment [1] was under 6; on Histamine H3 receptor, under 5.
In the case of `N/C(=N\C(=O)CCCCC(=O)/N=C(\N)NCCCc1c[nH]cn1)NCCCc1c[nH]cn1`, the negative-log Kb (pKb) in experiment [1] was found to be 6.13.
`Cc1nc(N)sc1CCCNC(=N)NC(=O)CCCCCCCCCCCCCCC(=O)NC(=N)NCCCc1sc(N)nc1C`: the midpoint of the response at Histamine H2 receptor [5], the EC50, lay at 34.7 nM.
For the molecule `N/C(=N\C(=O)CCCCCCC(=O)/N=C(\N)NCCCc1cnc(N)s1)NCCCc1cnc(N)s1`, the negative logarithm of the Kb (pKb) in experiment [1] was under 6; on Histamine H3 receptor it was 6.36.
Regarding `N/C(=N\C(=O)CCCCCCCCCCCCCCCCCCCCC(=O)/N=C(\N)NCCCc1cnc(N)s1)NCCCc1cnc(N)s1`, the pEC50 result at Histamine H2 receptor [3] is “inactive”. The same molecule registered a pKb on Histamine H2 receptor [4] of 5.77.

The values are drawn from ChEMBL document CHEMBL2163257 (J Med Chem, 2012).
